{"sequences": {"note": "Amino acid sequences for entries named in this document (tags omitted).", "UniProt O96028, whole entry": "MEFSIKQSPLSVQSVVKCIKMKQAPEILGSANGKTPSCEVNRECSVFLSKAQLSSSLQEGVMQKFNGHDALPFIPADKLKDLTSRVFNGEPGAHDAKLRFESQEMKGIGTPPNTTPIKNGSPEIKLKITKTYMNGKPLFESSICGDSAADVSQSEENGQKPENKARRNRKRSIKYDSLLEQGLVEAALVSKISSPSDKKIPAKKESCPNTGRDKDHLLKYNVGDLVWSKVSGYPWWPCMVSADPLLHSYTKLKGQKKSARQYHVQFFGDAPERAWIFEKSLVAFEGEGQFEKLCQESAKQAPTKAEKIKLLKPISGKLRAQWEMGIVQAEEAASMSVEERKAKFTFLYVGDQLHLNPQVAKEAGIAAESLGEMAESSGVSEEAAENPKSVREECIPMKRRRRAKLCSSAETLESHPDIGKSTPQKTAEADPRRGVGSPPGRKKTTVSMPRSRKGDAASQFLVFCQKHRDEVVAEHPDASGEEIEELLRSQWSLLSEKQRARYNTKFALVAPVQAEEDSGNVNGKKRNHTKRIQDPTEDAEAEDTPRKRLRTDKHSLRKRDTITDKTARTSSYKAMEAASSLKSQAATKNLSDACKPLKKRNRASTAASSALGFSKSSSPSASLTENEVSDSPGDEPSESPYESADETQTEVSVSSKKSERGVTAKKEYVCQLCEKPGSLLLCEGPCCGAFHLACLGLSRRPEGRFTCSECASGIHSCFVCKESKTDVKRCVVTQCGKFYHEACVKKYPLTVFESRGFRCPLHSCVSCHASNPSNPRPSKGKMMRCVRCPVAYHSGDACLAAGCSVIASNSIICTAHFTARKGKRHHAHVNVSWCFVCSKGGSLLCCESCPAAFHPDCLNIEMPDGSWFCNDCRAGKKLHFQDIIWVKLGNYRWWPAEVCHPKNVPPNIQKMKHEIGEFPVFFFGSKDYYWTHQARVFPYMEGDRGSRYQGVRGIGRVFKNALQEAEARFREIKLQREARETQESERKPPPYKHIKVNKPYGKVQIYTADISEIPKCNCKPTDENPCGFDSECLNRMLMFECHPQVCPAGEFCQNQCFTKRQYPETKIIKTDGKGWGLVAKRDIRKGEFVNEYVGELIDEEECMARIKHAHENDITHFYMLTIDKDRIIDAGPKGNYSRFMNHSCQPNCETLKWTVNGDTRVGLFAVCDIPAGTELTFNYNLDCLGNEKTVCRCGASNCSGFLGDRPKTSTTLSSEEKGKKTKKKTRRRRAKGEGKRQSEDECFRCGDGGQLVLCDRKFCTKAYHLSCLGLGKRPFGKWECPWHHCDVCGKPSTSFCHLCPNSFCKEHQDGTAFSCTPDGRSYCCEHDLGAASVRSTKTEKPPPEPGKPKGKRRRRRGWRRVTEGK"}, "source": "PubChem BioAssay AID743445", "about": "(Broad Institute, 2014)", "note": "Only a part is listed here, and it is no random draw. Active and inactive are the calls of the source. Cut-off read from the data, not from the text of the source: active = inhibition above about 50%; inactive = the rest."}
{"target": "Histone-lysine N-methyltransferase NSD2 (Homo sapiens) (UniProt O96028)", "experiment": "blockers of NSD2 lysine methylation activity – biochemical, AlphaScreen, single concentration, set 2, primary screen (AID 743445)", "settings": "NSD2 peptide methylation, 120 min, at 12.5 µM, active compounds read high"}
{"compound": "O=[N+]([O-])c1cc([N+](=O)[O-])c(Nc2nnnn2CCO)c([N+](=O)[O-])c1", "inhibition": "inactive: 8.06%"}
{"compound": "Cc1nc2ccc3ccccc3c2s1.O=[N+]([O-])c1cc([N+](=O)[O-])c(O)c([N+](=O)[O-])c1", "inhibition": "inactive: 1.04%"}
{"compound": "O=[N+]([O-])c1cc([N+](=O)[O-])c(-c2cnn(-c3ccccc3)c2)c([N+](=O)[O-])c1", "inhibition": "inactive: 2.06%"}
{"compound": "CN(Cc1cccnc1)C(=O)COc1ccc(Cl)c(Cl)c1.O=[N+]([O-])c1cc([N+](=O)[O-])c(O)c([N+](=O)[O-])c1", "inhibition": "inactive: -1.11%"}
{"compound": "O=[N+]([O-])c1cc([N+](=O)[O-])c(-n2nnc3ccccc32)c([N+](=O)[O-])c1", "inhibition": "inactive: 5.88%"}
{"compound": "CP(=O)(Nc1ccccn1)Oc1ccc(Cl)cc1", "note": "(stereo not drawn)", "inhibition": "inactive: -0.176%"}
{"compound": "CCOP(C)(=S)SCC(=O)NC(C)C(=O)O", "note": "(stereo not drawn)", "inhibition": "inactive: -1.72%"}
{"compound": "CCOC(=O)c1ccc(NP(C)(=O)Oc2ccc(OC)cc2)cc1", "note": "(stereo not drawn)", "inhibition": "inactive: -0.395%"}
{"compound": "Cc1cc(C)cc(OP(C)(=O)Nc2ccc(SC(F)(F)F)cc2)c1", "note": "(stereo not drawn)", "inhibition": "inactive: -0.685%"}
{"compound": "CCc1ccc(OP(C)(=O)N2CCN(c3ccc([N+](=O)[O-])cc3)CC2)cc1", "note": "(stereo not drawn)", "inhibition": "inactive: 4.84%"}
{"compound": "CP(=O)(NC(=O)Nc1ccccc1)Oc1ccccc1", "note": "(stereo not drawn)", "inhibition": "inactive: 4.58%"}
{"compound": "CP(=O)(Oc1ccccc1)OC(c1ccccc1)C(F)(F)F", "note": "(stereo not drawn)", "inhibition": "inactive: -5.6%"}
{"compound": "CP(=O)(Nc1ccc(SC(F)(F)F)cc1)Oc1ccc(Cl)cc1", "note": "(stereo not drawn)", "inhibition": "inactive: -1.08%"}
{"compound": "Cc1ccc(Nc2c([N+](=O)[O-])cc([N+](=O)[O-])cc2[N+](=O)[O-])cc1", "inhibition": "inactive: 26.4%"}
{"compound": "Cc1cccc(C)c1OP(C)(=O)Nc1ccc(SC(F)(F)F)cc1", "note": "(stereo not drawn)", "inhibition": "inactive: -1.27%"}
{"compound": "COc1ccccc1OP(C)(=O)Nc1ccccc1", "note": "(stereo not drawn)", "inhibition": "inactive: -0.678%"}
{"compound": "CP(=O)(Nc1ccccc1Br)Oc1ccccc1", "note": "(stereo not drawn)", "inhibition": "inactive: -4.5%"}
{"compound": "CP(=S)(Nn1cnnc1)Oc1ccccc1", "note": "(stereo not drawn)", "inhibition": "inactive: 0.643%"}
{"compound": "COc1ccccc1OP(C)(=O)Nc1cc(Cl)ccc1C", "note": "(stereo not drawn)", "inhibition": "inactive: -4.79%"}
{"compound": "Cc1cc(C)cc(OP(C)(N)=O)c1", "note": "(stereo not drawn)", "inhibition": "inactive: 4.96%"}
{"compound": "CCOC(=O)c1ccc(NP(C)(=O)Oc2ccccc2)cc1", "note": "(stereo not drawn)", "inhibition": "inactive: -1.45%"}
{"compound": "Cc1ccc(NP(C)(=O)Oc2ccccc2)c(C)c1", "note": "(stereo not drawn)", "inhibition": "inactive: 0.249%"}
{"compound": "COc1ccccc1OP(C)(=O)Nc1ccc(C)cc1", "note": "(stereo not drawn)", "inhibition": "inactive: 1.79%"}
{"compound": "Cc1cccc(C)c1OP(C)(N)=O", "note": "(stereo not drawn)", "inhibition": "inactive: -1.12%"}
{"compound": "CC(C)(C)c1ccc(OP(C)(=O)Nc2ccc(SC(F)(F)F)cc2)cc1", "note": "(stereo not drawn)", "inhibition": "inactive: -2.04%"}
{"compound": "O=[N+]([O-])c1ccc2c(c1)C=Nc1ccccc1O2", "inhibition": "inactive: 7.09%"}
{"compound": "COc1ccccc1-c1ccccn1.O=[N+]([O-])c1cc([N+](=O)[O-])c(O)c([N+](=O)[O-])c1", "inhibition": "inactive: 2.02%"}
{"compound": "CCN(CC)CCCOC(=O)C(O)(c1ccccc1)c1ccccc1", "inhibition": "inactive: 2.92%"}
